The term LD50 denotes the dose expected to kill half of the subjects tested. Read a low LD50 as a more toxic substance.

We go through 1 compound from patent publication US5192799A, “Coumaran group containing amine compounds and their acid addition salts and quaternary ammonium salts and the use thereof as anti arrhythmic agents and as psychotropic agents” (Mitsui Petrochemical Industries, Ltd., priority 1987, dated 1993).

This data set in a line: in vivo. Conditions: mouse. The procedure:
By using male ddY-strain 5-week old mice (3 to 4 per group), the compounds of general formula (1) were each administered orally or intraperitoneally as a solution in saline or as a suspension in methyl cellulose, and 24 hours after the administration, the toxicity of the compounds was evaluated.

On to `CCCCCCC[N+](CC)(CC)CCCCc1ccc(Cl)cc1` [Clofilium, reference compound], for which the LD50 at 24 h is around 30 mg/kg (ip) and above 1000 mg/kg (po).
